Series [1] concerns endogenous target monocytes in human PBMC. The series is described as follows: PBMC ex vivo monocyte depletion flow cytometry assay (Example 200). Particulars: with anti-cotinine antibody SEQ ID NO: 11/12, 18-24 hours. As to the method: A human PBMC (peripheral blood mononuclear cells) monocyte depletion flow cytometry assay was developed to screen compounds in a 384-well plate format. This assay incorporated endogenous natural killer cells to deplete endogenous target monocytes.
To screen compounds in the human PBMC monocyte depletion flow cytometry assay, 11-point dose-response curves were made from 1 mM stocks in neat DMSO by serially diluting an ARM compound of Formula (I) four-fold into a 384-well plate row-wise. These serially diluted compounds were then stamped into a flat bottom polypropylene 384-well plate (Greiner Bio-One) at 100 nL/well. […]
After 18-24 hours incubation, 2 μL of 6.25 μg human FC block (BD Pharmingen) that was diluted in assay medium was added to the wells of the plate. […] Samples from the plate were run on BD FACS Canto II flow cytometer and data was analyzed using FlowJo software.
ARMs compounds of Formula (I) of the invention were tested for the ability to deplete monocytes in the above assay in one or more experimental runs and the results are shown in Table 3 below. […] The pEC50 value is the negative log of the EC50 value, wherein the EC50 value is the half maximal effective concentration measured in molar (M). For compounds tested in more than one experimental run, the pEC50 value is reported as an average or as the individual values measured

The chains behind the UniProt entries cited, without tags or fusion partners. Where a name states a change or a piece, a line headed by the entry shows the natural chain unless it says otherwise.
UniProt P41597, whole entry: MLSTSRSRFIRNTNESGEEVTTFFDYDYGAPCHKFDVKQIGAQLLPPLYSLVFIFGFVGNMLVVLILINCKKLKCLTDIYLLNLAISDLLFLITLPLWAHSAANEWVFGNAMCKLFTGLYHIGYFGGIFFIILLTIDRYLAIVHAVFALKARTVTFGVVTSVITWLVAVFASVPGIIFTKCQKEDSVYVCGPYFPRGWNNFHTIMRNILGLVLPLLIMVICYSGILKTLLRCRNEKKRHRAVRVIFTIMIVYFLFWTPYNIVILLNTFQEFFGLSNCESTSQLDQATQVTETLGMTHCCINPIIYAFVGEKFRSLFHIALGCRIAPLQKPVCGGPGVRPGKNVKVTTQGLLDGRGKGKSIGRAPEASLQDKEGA

Series [2] is described as follows: Blood drug concentration analysis (PK) in the in vivo depletion assay (Example 201). Particulars: hCCR2 knock-in mice, IV 0.1 mpk compound + 10 mpk anti-cotinine antibody. As for the experimental part:
Human CCR2 (hCCR2) knock-in mice (C57 background) were dosed intravenously with a PBS solution containing a compound of Formula (I) to measure depletion of CCR2 expressing cells in peripheral blood. Peripheral blood from IV dosed mice was also analyzed to determine PK properties of the ARM compounds of Formula (I).
Administration to Animal: Solution formulation of antibody and compound of Formula (I) was injected (bolus injection) to the restrained mouse in the right/left lateral tail vein. Animals were dosed with 0.1 milligram per kilogram (mpk) of the compound of Formula (I) and 10 mpk of the anti-cotinine antibody. […]
Terminal bleeding at end of experiment (48 hr): Approximately 250 μL of blood in K2EDTA tube and approximately 250 μL of blood in SST (serum separation tube) was collected from each mouse through retro-orbital bleeding under deep isoflurane anesthesia. […] The blood distribution at termination was determined as follows: • For PK: 50 μL of K2EDTA blood was transferred to another tube for PK • Flow cytometry: Remaining blood (˜200 μL) was used for flow cytometry analysis. • For serum collection: serum separator tubes (BD) were centrifuged at 4° C., 5000 rpm for 15 minutes. […]
Drug concentration in blood samples was determined by an LC-MS/MS-based bioanalytical method developed at Syngene. […]

Series [3] addresses CHOK1 cells engineered to overexpress human CCR2 (Homo sapiens, UniProt P41597). The series can be described thus: Antibody dependent cellular cytotoxicity (ADCC) reporter assay (Example 199). Particulars: with anti-cotinine antibody SEQ ID NO: 11/12; CHOK1-human CCR2 target cells, Jurkat FcγRIIIa NFAT-luciferase reporter cells; 12-18 hours. As for the experimental part: An antibody dependent cellular cytoxicity reporter assay was conducted using the following four assay components: (i) ARM compound of Formula (I) targeting CCR2 (concentrations ranging from 1 pM to 10 μM) (ii) anti-cotinine antibody having a heavy chain sequence of SEQ ID NO: 11 and a light chain sequence of SEQ ID NO: 12 (rabbit variable region with human IgG1 Fc domain containing a DE mutation (S239D/1332E)) (concentrations ranging from 0.01 μg/mL to 200 μg/mL); (iii) target cells: CHOK1 cells engineered to overexpress either human CCR2 (typically 1000-20,000 cells per well) and (iv) reporter cells: Jurkat cells engineered to express FcγRIIIa with the reporter gene luciferase under the control of the NFAT promoter (typically 3000-75,000 cells per well). Reagents were combined in a final volume of 20 μL in a 384-well tissue culture treated plate. […] Luminescence signal was measured on a microplate reader and signal:background was calculated by dividing the signal of a test well by the signal obtained when no heterobivalent compound of Formula (I) was added. […]
ARMs compounds of Formula (I) of the invention were tested for ADCC activity in the above assay in or more experimental runs and the results are shown in Table 3 below. […] The pEC50 value is the negative log of the EC50 value, wherein the EC50 value is the half maximal effective concentration measured in molar (M). […]

Series [4] concerns the target Anti-cotinine antibody (SEQ ID NO: 11 / SEQ ID NO: 12, rabbit variable region with human IgG1 Fc domain) (synthetic construct, UniProt Z9HSV0PDV2+Z9L748VNP9). The series is described as follows: Binding of anti-cotinine antibody to ARM compounds by SPR, Biacore T200, 37° C. (Example 202). Particulars: pH 7.4, rabbit variable region/human IgG1 Fc antibody captured on protein A. As for the experimental part:
Anti-cotinine antibodies having a heavy chain sequence of SEQ ID NO: 11 and a light chain sequence of SEQ ID NO: 12 (rabbit variable region with human IgG1 Fc domain containing a DE mutation (S239D/1332E)) were captured on one or more flow cells of a protein A sensor chip (Cytiva) using a Biacore T200 while reserving flow cell 1 as a reference. Following capture, a 3000 second wait step was included to reduce drift during compound analysis. ARM compounds of Formula (I) were then injected at 100 μL/min with 200 and 2000 second association and dissociation times. The entire experiment was run at 37° C. with running buffer containing 10 mM HEPES pH 7.4, 150 mM NaCl, 0.005% P20 and 1% DMSO. […] The experiment was run using Biacore T200 control software and evaluated using Biacore T200 Evaluation software. Curves were fit with a 1:1 kinetic binding model to obtain kon(1/Ms), koff(1/s), Kd (M) determined as koff/kon, and residence time determined as 1/koff. […]
Anti-cotinine antibody was tested for binding to ARMs compounds of Formula (I) of the invention in the above assay in or more experimental runs and the results are shown in Table 5 below. […] The pKd value is the negative log of the Kd value, wherein the Kd value is the dissociation constant measured in molar (M) as noted above. […]
(In general: SPR reads the build-up and loss of mass on a sensor chip optically.)

Here are results for one compound from patent publication US20250136722A1, “CYTOTOXICITY TARGETING CHIMERAS” (GLAXOSMITHKLINE INTELLECTUAL PROPERTY DEVELOPMENT LIMITED, priority 2021, published 2025).

SMILES strings stand for the structures.

`CN1C(=O)C[C@H](C(=O)NCCOCCNC(=O)[C@H]2C[C@H](NC(=O)CCOCCC(=O)N[C@@H]3C[C@H](NC(C)(C)C)CC[C@@H]3N3CC[C@H](Nc4ncnc5ccc(C(F)(F)F)cc45)C3=O)C2)[C@H]1c1cccnc1`: in series [1], the “Ex Vivo Depletion Assay pEC50” value was found to be 9.5. For the same compound, the “Exposure of Compound of Formula (I) 48 hours post-dose” value in series [2] is recorded as 73.01 ng/mL. Besides, the “ADCC Reporter Assay pEC50” value in series [3] was determined as 9.3. Further, the “pKd of Antibody for ARM Compound of Formula (I)” value in series [4] was 8.975.
